In PubChem BioAssay AID1626 (SRMLSC, 2009):
Some of the results follow. Some results for these compounds are left out of this collection, so the calls shown say nothing about other tests. The source made the active and inactive calls. Rule as the data show it: inconclusive = inhibition above about 80% without an active follow-up result; inactive = below that; test concentration not stated here.

assay: M. tuberculosis H37Rv growth inhibitors, H37Rv strain (AID 1626); conditions: hits give high values, concentration not given here;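 also: bacteria incubated seven days before Alamar blue readout; 0% = bacteria only wells and 100% = bacteria with antibiotic wells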

Compound	inhibition
COc1cccc(C(=O)NCC2(N3CCCCC3)CCCCC2)c1	inactive: 0.51%
O=C(OC1CN2CCC1CC2)C(CO)(c1ccccc1)c1ccccc1 (stereo not given)	inactive: -7.18%
CN(C)c1cccc(C(=O)NCC2(N(C)C)CCCCC2)c1	inactive: -4.81%
O=C(NCC1(N2CCCCC2)CCCCC1)c1cc([N+](=O)[O-])ccc1Cl	inactive: 8.16%
CCN(CC)CC(C)C(C)OC(=O)C(O)(c1ccccc1)c1ccccc1 (stereo not given)	inactive: -6.39%
CC(C)N1C(=O)CC2(CCN(CCOC(=O)C(O)(c3ccccc3)c3ccccc3)CC2)C1=O	inactive: -9.27%
CN(C)C1CCCC1OC(=O)C(O)(c1ccccc1)c1ccccc1 (stereo not given)	inactive: -2.76%
Cc1ccccc1C(=O)NCC1(N2CCCCC2)CCCCC1	inactive: 1.95%
C=CCN1CCN(CCOC(=O)C(O)(c2ccccc2)c2ccccc2)CC1	inactive: -1.82%
CCN1CCCC(OC(=O)C2(O)c3ccccc3C=Cc3ccccc32)C1 (stereo not given)	inactive: 11.9%
